How the values were obtained:
[1] = target: Cytochrome P450 2C9 (Homo sapiens, UniProt P11712); experiment: Inhibition of human CYP2C9
[2] = target: Cytochrome P450 2C19 (Homo sapiens, UniProt P33261); experiment: Inhibition of human CYP2C19
[3] = target: Cytochrome P450 1A2 (Homo sapiens, UniProt P05177); experiment: Inhibition of human CYP1A2; assay type: ADME
[4] = target: Cytochrome P450 3A4 (Homo sapiens, UniProt P08684); experiment: Inhibition of human CYP3A4
[5] = target: Cytochrome P450 2D6 (Homo sapiens, UniProt P10635); experiment: Inhibition of human CYP2D6

Sequences of proteins named here, by UniProt entry; tags and fusion partners are left off.
UniProt P11712, whole entry: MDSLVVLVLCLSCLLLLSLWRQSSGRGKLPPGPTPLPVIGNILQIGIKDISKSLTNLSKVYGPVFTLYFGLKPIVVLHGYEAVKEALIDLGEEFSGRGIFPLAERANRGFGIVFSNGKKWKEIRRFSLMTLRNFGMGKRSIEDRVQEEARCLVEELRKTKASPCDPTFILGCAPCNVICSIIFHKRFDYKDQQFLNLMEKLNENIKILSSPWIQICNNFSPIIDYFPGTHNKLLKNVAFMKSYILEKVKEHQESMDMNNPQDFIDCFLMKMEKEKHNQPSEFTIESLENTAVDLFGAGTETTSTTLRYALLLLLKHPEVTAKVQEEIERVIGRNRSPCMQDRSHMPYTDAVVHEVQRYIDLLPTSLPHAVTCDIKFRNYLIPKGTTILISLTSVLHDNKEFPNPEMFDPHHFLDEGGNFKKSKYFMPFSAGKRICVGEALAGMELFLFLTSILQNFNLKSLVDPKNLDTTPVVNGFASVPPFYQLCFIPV
UniProt P33261, whole entry: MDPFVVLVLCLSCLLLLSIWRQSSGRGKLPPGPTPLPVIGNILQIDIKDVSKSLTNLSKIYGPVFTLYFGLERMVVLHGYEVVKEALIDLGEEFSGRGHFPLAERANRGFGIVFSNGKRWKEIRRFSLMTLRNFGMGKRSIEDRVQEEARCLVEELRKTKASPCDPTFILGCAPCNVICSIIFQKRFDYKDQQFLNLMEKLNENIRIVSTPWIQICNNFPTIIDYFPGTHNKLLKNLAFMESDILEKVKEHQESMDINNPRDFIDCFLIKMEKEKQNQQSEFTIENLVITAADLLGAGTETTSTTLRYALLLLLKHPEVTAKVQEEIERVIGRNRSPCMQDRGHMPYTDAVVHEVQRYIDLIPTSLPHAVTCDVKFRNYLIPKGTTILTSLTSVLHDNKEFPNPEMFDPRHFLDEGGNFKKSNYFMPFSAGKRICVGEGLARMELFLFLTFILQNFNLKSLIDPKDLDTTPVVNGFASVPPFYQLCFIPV
UniProt P05177, whole entry: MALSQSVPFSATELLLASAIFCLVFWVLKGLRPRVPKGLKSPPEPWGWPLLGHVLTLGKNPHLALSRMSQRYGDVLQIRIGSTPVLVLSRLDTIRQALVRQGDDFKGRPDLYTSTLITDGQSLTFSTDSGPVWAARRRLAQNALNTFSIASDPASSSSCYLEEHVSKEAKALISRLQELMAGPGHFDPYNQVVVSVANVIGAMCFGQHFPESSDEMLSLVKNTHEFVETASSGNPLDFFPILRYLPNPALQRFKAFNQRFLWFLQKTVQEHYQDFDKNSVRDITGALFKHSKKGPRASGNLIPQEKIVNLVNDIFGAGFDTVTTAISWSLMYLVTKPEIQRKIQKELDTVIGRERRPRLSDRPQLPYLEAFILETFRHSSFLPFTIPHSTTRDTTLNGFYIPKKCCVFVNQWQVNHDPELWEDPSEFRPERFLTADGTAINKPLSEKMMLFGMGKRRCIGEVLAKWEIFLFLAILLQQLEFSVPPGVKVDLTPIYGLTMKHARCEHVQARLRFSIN
UniProt P08684, whole entry: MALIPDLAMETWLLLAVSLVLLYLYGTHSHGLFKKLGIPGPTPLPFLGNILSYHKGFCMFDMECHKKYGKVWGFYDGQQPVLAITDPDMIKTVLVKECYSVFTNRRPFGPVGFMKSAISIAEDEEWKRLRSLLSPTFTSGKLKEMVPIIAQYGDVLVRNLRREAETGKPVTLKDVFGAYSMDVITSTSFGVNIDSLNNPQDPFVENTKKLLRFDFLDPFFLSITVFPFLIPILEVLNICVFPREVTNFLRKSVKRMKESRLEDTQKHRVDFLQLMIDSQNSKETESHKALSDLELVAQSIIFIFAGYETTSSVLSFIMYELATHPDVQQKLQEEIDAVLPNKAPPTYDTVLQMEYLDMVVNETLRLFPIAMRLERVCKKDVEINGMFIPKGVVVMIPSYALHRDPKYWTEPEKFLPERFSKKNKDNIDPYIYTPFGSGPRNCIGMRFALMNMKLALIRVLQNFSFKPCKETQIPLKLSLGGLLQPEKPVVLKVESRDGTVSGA
UniProt P10635, whole entry: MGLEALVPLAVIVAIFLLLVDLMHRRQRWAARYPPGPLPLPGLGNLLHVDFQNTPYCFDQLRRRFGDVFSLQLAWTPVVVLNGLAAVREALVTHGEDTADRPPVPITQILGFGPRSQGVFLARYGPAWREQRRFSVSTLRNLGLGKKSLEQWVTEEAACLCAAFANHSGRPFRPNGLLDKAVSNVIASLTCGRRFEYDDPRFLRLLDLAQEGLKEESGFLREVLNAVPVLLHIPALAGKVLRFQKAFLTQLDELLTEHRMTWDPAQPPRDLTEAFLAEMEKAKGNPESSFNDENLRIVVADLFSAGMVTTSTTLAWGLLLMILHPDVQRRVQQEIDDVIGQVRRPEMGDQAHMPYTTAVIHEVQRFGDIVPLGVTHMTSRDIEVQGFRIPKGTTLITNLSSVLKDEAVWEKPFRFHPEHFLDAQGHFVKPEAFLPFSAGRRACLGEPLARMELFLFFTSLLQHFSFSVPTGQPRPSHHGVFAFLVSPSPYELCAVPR

Measured: IC50

CC1(C)c2nc(-c3ccc(F)cc3)c(Nc3ccc(F)cc3)n2CCN1C(=O)CN [GANAPLACIDE]
> 6 µM: [1] | [2] | [3] | [4] | [5]

— ChEMBL document CHEMBL2057141, “Imidazolopiperazines: lead optimization of the second-generation antimalarial agents” (J Med Chem, 2012)
